The test system of the series is rats. Kind of series: Onset of cannabinoid and terpene activities in rats (Example 3). Conditions: for cannabinoid effects observed: oral gavage, more prominent at 8 hours than at 4 hours after dosing.

`CCCCCc1cc(O)c2c(c1)OC(C)(C)[C@@H]1CCC(C)=C[C@@H]21`: the cannabinoid effects observed result is “hyperthermia, abnormal gait and posture”.

Consider `C=CC(C)(O)CCC=C(C)C` (stereo not shown), for which the tolerability result (terpenes by themselves, sniffing) is “rats did not like the smell”.

For the compound `C=C(C)[C@@H]1CCC(C)=C[C@H]1c1c(O)cc(CCCCC)cc1O`, the “effect on body temperature” value is “degree of hypothermia observed with groups receiving CBD was unexpected”; the cannabinoid effects observed result was “hyperthermia, abnormal gait and posture”.

The values above are taken from patent US12150928B2, “Methods of treating sarin exposure with tetrahydrocannabinol and cannabidiol combinations” (dated 2024).
